The chains behind the UniProt entries cited, without tags or fusion partners.
UniProt P34913, whole entry: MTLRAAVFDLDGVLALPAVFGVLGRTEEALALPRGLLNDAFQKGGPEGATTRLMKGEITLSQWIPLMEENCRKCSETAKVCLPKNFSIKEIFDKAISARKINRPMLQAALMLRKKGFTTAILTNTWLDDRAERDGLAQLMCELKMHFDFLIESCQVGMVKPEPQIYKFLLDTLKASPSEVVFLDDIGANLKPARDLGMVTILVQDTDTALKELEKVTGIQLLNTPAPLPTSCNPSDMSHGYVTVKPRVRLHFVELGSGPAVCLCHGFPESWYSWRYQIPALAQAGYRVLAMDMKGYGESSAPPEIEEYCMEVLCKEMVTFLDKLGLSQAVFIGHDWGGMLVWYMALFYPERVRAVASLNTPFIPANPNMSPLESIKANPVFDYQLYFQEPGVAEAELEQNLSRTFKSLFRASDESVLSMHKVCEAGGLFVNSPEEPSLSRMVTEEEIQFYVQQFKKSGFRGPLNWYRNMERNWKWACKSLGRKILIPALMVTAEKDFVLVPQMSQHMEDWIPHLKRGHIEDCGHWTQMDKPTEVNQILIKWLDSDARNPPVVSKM

According to patent US20200079786A1, “ANALOGS OF ADAMANTYLUREAS AS SOLUBLE EPOXIDE HYDROLASE INHIBITORS” (UNIVERSITAT DE BARCELONA, priority 2015, published 2020):

Molecular target: T1, recombinant human sEH (Homo sapiens, UniProt P34913)
T1 construct: purchased Cayman Chemical 10011669
Experiment: In vitro determination of sEH inhibition activity (fluorescent assay, PHOME substrate)
Format: biochemical
Conditions: mean ± Standard Error, min. three replicates, read-out: IC50 (nM) ± SE, sEH inhibition activity
Description: 3-(Phenyl-oxiranyl)-acetic acid cyano-(6-methoxy-naphthalen-2-yl)-methyl ester (PHOME; from Cayman Chemical, item number 10009134; CAS 1028430-42-3); cf. N. M. Wolf et al., Anal. Biochem. 2006, vol. 355, pp. 71-80.
Solutions: • Assay buffer: Bis/Tris HCl 25 mM pH 7.0 containing 0.1 mg/mL of bovine serum albumin (BSA). • PHOME at 200 μM in DMSO. • Solution of recombinant human sEH (Cayman Chemical, item number 10011669), diluted with assay buffer. • Inhibitors dissolved in DMSO at appropriated concentrations.
In a black 96-well plate (Greiner Bio-One, item number 655900), fill the background wells with 90 μL and the positive control and inhibitor wells with 85 μL of assay buffer. Add 5 μL of DMSO to background and positive control wells, and then add 5 μL of inhibitor solution in inhibitor wells. Add 5 μL of the solution of hsEH to the positive control and inhibitor wells and mix several time. Prepare a 1/21 dilution of the solution of PHOME with assay buffer according to final volume required, and then add 105 μL of each well. Shake carefully the plate for 10 seconds and incubate for 5 minutes at room temperature. […] Results were obtained by regression analysis from at least three data points in a linear region of the curve. IC50 values are average of minimum three independent replicates.

SMILES	IC50
O=C(Nc1ccc(F)c(F)c1F)NC12CC3CC(CC(C3)O1)C2 [Ia, 1-(2-oxaadamantan-1-yl)-3-(2,3,4-trifluorophenyl)urea]	2.58 nM
O=C(Nc1ccc(F)c(F)c1F)NC12CC3CC(CC(C3)C1)C2 [Std 1, 1-(Adamantan-1-yl)-3-(2,3,4-trifluorophenyl)urea, reference compound]	7.74 nM
